Laboratory results: patent US10087225B2, “Formulation of MK2 inhibitor peptides” (MOERAE MATRIX, INC., priority 2015, dated 2018)

Sequences of proteins named here, by UniProt entry; tags and fusion partners are left off. A change or cut given only in a name is not applied to a line headed by its entry.
UniProt Q00526: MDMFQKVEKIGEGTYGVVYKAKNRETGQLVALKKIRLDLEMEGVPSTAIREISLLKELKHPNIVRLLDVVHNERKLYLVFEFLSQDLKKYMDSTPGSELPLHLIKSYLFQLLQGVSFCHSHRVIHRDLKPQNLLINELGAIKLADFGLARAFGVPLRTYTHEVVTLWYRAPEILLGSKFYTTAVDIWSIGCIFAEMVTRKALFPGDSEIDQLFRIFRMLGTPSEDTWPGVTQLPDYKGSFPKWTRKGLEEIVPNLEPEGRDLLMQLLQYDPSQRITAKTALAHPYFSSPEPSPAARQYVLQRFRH
UniProt Q9Y5S2: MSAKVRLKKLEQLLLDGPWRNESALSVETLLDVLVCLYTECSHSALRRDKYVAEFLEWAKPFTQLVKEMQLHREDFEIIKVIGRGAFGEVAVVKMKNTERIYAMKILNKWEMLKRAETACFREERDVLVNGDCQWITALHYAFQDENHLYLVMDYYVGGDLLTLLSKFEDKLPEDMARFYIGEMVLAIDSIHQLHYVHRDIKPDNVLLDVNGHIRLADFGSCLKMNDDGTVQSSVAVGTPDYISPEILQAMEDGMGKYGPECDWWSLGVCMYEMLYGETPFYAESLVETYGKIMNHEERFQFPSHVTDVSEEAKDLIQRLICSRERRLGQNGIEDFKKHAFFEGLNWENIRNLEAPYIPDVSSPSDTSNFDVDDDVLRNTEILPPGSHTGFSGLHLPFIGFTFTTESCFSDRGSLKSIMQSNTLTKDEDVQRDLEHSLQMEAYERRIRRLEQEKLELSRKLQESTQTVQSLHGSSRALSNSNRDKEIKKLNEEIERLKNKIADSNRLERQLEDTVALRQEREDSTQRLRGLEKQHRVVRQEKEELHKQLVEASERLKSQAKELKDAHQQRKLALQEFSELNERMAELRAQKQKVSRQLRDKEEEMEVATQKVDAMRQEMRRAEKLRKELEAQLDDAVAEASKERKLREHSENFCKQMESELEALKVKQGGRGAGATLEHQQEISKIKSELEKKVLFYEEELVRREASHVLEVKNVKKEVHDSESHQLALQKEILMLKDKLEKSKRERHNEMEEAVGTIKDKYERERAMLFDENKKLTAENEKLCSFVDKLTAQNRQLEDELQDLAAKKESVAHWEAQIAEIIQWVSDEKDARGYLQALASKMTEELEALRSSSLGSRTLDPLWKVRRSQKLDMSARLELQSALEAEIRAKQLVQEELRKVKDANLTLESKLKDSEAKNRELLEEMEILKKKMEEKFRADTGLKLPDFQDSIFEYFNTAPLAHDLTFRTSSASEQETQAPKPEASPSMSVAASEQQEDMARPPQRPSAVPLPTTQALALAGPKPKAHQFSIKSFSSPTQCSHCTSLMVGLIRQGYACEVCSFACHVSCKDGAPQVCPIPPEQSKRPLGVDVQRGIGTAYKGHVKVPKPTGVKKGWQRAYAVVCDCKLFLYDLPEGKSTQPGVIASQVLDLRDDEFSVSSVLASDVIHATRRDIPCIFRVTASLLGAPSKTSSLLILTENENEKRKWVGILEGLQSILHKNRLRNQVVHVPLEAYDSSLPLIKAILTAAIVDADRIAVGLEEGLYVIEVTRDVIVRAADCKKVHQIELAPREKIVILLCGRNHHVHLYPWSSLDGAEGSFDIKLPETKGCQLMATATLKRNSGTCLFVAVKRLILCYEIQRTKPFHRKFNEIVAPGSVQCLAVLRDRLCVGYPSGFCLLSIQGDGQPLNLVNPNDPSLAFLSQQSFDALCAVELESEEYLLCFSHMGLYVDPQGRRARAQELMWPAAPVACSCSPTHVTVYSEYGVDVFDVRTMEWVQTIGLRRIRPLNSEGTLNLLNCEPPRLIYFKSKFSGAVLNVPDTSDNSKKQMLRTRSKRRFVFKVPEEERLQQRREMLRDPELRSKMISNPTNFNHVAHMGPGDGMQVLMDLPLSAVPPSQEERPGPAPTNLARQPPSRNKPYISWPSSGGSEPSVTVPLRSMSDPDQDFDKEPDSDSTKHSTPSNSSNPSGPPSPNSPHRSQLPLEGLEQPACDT
UniProt P06493, whole entry: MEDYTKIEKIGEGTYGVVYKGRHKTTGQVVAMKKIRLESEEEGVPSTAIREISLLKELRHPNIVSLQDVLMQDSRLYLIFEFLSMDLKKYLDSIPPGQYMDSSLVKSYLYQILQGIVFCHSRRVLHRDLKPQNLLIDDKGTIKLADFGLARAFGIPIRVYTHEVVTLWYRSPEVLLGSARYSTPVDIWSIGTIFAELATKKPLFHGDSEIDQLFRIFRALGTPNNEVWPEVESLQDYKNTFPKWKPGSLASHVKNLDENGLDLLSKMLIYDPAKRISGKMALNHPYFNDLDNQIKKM
UniProt O75676: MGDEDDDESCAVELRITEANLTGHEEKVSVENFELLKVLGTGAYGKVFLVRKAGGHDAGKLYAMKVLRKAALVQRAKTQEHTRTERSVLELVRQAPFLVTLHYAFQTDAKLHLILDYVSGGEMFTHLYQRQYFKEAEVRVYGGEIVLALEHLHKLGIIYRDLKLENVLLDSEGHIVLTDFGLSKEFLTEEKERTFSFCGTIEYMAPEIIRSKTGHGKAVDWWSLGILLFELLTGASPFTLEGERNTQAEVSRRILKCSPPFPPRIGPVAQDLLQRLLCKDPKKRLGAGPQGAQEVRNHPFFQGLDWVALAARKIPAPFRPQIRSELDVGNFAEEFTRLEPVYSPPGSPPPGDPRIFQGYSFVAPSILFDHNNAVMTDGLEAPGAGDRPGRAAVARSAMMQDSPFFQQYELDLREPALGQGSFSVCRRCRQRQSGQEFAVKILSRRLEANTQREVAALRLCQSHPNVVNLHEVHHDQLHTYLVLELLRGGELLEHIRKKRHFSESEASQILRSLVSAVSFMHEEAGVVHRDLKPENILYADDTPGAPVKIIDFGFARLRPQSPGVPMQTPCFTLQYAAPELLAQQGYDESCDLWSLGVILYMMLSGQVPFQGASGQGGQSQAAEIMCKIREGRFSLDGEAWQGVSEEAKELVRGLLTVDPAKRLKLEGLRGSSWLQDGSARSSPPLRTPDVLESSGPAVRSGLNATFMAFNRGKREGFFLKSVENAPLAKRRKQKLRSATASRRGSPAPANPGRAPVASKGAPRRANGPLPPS
UniProt Q9HBY8: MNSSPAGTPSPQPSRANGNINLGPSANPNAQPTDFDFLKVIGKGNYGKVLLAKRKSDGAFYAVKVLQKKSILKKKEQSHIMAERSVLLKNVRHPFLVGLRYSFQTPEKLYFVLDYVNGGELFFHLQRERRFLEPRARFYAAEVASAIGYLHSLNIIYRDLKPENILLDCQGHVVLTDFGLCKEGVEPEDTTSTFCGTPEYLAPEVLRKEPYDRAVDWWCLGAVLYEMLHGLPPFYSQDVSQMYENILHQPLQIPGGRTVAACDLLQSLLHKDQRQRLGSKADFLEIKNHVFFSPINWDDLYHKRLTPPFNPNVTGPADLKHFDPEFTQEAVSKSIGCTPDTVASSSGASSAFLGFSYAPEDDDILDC
UniProt Q00534, whole entry: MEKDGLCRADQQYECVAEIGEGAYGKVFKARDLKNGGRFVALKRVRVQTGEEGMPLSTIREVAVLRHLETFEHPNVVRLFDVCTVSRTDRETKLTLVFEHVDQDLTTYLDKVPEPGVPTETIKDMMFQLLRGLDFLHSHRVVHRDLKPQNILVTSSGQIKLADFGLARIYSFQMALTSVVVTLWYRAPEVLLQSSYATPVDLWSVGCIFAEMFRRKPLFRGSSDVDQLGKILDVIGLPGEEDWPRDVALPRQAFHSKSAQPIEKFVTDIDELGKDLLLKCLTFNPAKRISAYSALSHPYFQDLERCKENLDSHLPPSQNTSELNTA
UniProt O75582, whole entry: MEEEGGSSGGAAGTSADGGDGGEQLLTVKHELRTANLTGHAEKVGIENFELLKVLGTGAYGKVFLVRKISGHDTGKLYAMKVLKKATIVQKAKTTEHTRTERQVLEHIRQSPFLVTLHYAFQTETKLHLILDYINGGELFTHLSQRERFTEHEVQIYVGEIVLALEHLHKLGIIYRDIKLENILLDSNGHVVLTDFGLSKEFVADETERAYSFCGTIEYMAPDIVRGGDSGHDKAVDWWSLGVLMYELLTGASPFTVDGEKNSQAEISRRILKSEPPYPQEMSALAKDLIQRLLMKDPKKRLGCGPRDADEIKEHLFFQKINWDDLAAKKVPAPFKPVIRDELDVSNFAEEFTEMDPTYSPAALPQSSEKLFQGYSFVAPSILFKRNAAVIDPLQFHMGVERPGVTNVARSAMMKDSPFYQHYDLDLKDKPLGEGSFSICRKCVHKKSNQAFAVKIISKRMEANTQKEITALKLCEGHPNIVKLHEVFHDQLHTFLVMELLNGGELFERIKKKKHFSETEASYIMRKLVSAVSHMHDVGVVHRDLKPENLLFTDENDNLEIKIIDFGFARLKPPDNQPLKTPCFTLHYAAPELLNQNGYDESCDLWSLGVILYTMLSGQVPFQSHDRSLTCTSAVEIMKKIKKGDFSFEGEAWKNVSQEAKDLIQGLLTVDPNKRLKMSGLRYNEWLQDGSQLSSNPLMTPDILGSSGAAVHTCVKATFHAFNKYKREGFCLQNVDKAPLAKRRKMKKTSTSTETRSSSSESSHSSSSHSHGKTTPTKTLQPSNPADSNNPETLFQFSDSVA
UniProt P00519, whole entry: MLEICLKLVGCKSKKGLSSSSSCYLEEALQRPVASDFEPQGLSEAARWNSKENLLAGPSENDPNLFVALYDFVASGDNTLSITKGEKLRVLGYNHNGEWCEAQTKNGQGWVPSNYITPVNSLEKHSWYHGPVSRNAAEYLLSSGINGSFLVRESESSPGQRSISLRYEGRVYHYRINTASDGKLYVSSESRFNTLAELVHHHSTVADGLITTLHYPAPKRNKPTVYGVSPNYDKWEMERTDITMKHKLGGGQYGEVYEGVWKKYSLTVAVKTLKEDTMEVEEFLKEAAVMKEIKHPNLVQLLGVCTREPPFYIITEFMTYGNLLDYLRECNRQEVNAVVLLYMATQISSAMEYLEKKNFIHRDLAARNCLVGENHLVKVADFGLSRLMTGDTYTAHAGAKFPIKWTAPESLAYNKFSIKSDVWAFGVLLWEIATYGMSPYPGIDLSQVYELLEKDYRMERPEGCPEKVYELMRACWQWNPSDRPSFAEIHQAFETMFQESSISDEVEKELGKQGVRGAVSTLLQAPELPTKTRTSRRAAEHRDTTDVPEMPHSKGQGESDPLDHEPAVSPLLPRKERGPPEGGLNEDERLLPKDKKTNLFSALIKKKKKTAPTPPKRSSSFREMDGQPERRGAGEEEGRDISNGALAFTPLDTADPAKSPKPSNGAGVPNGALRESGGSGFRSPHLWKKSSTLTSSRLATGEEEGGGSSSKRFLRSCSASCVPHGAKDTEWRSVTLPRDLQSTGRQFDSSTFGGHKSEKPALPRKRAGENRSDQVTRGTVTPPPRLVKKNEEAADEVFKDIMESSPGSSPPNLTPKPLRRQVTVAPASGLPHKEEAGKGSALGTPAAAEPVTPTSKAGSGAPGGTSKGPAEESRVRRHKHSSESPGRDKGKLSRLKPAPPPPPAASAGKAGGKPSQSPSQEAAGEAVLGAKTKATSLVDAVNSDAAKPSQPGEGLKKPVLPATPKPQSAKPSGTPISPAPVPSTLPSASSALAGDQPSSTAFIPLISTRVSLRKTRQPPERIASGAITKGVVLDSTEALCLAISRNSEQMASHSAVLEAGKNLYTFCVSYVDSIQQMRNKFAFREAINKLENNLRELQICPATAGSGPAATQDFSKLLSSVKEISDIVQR
UniProt P05771, whole entry: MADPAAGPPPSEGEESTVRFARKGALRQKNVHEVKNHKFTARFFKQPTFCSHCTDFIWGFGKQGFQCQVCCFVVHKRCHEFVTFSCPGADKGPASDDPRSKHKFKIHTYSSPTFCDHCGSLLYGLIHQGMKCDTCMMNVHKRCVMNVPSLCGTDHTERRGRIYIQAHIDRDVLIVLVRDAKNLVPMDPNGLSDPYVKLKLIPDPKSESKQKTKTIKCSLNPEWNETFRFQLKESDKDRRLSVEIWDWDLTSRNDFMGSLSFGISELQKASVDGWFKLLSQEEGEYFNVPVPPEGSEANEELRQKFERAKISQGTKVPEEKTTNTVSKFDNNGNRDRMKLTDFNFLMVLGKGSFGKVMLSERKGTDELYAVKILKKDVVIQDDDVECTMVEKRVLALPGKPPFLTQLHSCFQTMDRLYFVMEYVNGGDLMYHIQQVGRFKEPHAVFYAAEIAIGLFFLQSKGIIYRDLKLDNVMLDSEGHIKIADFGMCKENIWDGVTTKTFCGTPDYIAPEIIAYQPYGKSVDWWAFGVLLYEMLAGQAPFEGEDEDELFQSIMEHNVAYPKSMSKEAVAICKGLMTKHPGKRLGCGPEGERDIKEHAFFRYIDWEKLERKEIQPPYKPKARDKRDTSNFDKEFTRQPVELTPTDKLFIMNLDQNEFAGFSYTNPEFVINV

Assays:
Test in all cases: Kinase Profiling Assay
Type in all cases: biochemical
Fyn(h) = Fyn(h) (Homo sapiens, UniProt P06241)
Ron(h) = Ron(h) (Homo sapiens, UniProt Q04912)
Fgr(h) = Fgr(h) (Homo sapiens, UniProt P09769)
CDK5/p25(h) = CDK5/p25(h) (Homo sapiens, UniProt Q00535)
CDK3/cyclinE(h) = CDK3/cyclinE(h) (Homo sapiens, UniProt Q00526)
MRCKβ(h) = MRCKβ(h) (Homo sapiens, UniProt Q9Y5S2)
CK1γ3(h) = CK1γ3(h) (Homo sapiens, UniProt Q9Y6M4)
NEK2(h) = NEK2(h) (Homo sapiens, UniProt P51955)
PKBα(h) = PKBα(h) (Homo sapiens, UniProt P31749)
CDK1/cyclinB(h) = CDK1/cyclinB(h) (Homo sapiens, UniProt P06493)
MSK2(h) = MSK2(h) (Homo sapiens, UniProt O75676)
CDK7/cyclinH/MAT1(h) = CDK7/cyclinH/MAT1(h) (Homo sapiens, UniProt P50613)
BTK(h) = BTK(h) (Homo sapiens, UniProt Q06187)
SGK2(h) = SGK2(h) (Homo sapiens, UniProt Q9HBY8)
Ret(V804L)(h) = Ret(V804L)(h) (Homo sapiens, UniProt P07949, V804L)
TAK1(h) = TAK1(h) (Homo sapiens, UniProt O43318)
Met(h) = Met(h) (Homo sapiens, UniProt P08581)
CaMKIδ(h) = CaMKIδ(h) (Homo sapiens, UniProt Q8IU85)
MEK1(h) = MEK1(h) (Homo sapiens, UniProt Q02750)
ACK1(h) = ACK1(h) (Homo sapiens, UniProt Q07912)
cKit(D816V)(h) = cKit(D816V)(h) (Homo sapiens, UniProt P10721, D816V)
EGFR(T790M)(h) = EGFR(T790M)(h) (Homo sapiens, UniProt P00533, T790M)
Rse(h) = Rse(h) (Homo sapiens, UniProt Q06418)
SAPK3(h) = SAPK3(h) (Homo sapiens, UniProt P53778)
Met(D1246N)(h) = Met(D1246N)(h) (Homo sapiens, UniProt P08581, D1228N)
Yes(h) = Yes(h) (Homo sapiens, UniProt P07947)
MKK6(h) = MKK6(h) (Homo sapiens, UniProt P52564)
PKCϵ(h) = PKCϵ(h) (Homo sapiens, UniProt Q02156)
SAPK2b(h) = SAPK2b(h) (Homo sapiens, UniProt Q15759)
PKBβ(h) = PKBβ(h) (Homo sapiens, UniProt P31751)
CDK6/cyclinD3(h) = CDK6/cyclinD3(h) (Homo sapiens, UniProt Q00534)
MSK1(h) = MSK1(h) (Homo sapiens, UniProt O75582)
Pim-2(h) = Pim-2(h) (Homo sapiens, UniProt Q9P1W9)
NEK6(h) = NEK6(h) (Homo sapiens, UniProt Q9HC98)
Ab1(h) = Ab1(h) (Homo sapiens, UniProt P00519)
PKCβI(h) = PKCβI(h) (Homo sapiens, UniProt P05771)
GRK7(h) = GRK7(h) (Homo sapiens, UniProt Q8WTQ7)
FGFR4(h) = FGFR4(h) (Homo sapiens, UniProt P22455)
NEK11(h) = NEK11(h) (Homo sapiens, UniProt Q8NG66)
Fes(h) = Fes(h) (Homo sapiens, UniProt P07332)
SAPK4(h) = SAPK4(h) (Homo sapiens, UniProt O15264)

CC(C)C[C@H](NC(=O)[C@H](C)NC(=O)[C@H](CCCCN)NC(=O)[C@H](C)NC(=O)[C@H](CCCNC(=N)N)NC(=O)[C@H](C)NC(=O)[C@H](CCC(N)=O)NC(=O)[C@H](CCCNC(=N)N)NC(=O)[C@H](C)NC(=O)[C@H](C)NC(=O)[C@H](C)NC(=O)[C@H](CCCNC(=N)N)NC(=O)[C@H](C)NC(=O)[C@@H](N)Cc1ccc(O)cc1)C(=O)N[C@@H](C)C(=O)N[C@@H](CCCNC(=N)N)C(=O)N[C@@H](CCC(N)=O)C(=O)N[C@@H](CC(C)C)C(=O)NCC(=O)N[C@H](C(=O)N[C@@H](C)C(=O)N[C@@H](C)C(=O)O)C(C)C [MMI-0100]
activity at 100 µM (Fyn(h)): 71%
activity at 100 µM (Ron(h)): 117%
activity at 100 µM (Fgr(h)): 54%
activity at 100 µM (CDK5/p25(h)): 114%
activity at 100 µM (CDK3/cyclinE(h)): 106%
activity at 100 µM (MRCKβ(h)): 103%
activity at 100 µM (CK1γ3(h)): 105%
activity at 100 µM (NEK2(h)): 102%
activity at 100 µM (PKBα(h)): 140%
activity at 100 µM (CDK1/cyclinB(h)): 96%
activity at 100 µM (MSK2(h)): 105%
activity at 100 µM (CDK7/cyclinH/MAT1(h)): 89%
activity at 100 µM (BTK(h)): 112%
activity at 100 µM (SGK2(h)): 103%
activity at 100 µM (Ret(V804L)(h)): 113%
activity at 100 µM (TAK1(h)): 116%
activity at 100 µM (Met(h)): 104%
activity at 100 µM (CaMKIδ(h)): 59%
activity at 100 µM (MEK1(h)): 86%
activity at 100 µM (ACK1(h)): 106%
activity at 100 µM (cKit(D816V)(h)): 117%
activity at 100 µM (EGFR(T790M)(h)): 106%
activity at 100 µM (Rse(h)): 109%
activity at 100 µM (SAPK3(h)): 106%
activity at 100 µM (Met(D1246N)(h)): 114%
activity at 100 µM (Yes(h)): 49%
activity at 100 µM (MKK6(h)): 74%
activity at 100 µM (PKCϵ(h)): 102%
activity at 100 µM (SAPK2b(h)): 99%
activity at 100 µM (PKBβ(h)): 284%
activity at 100 µM (CDK6/cyclinD3(h)): 103%
activity at 100 µM (MSK1(h)): 52%
activity at 100 µM (Pim-2(h)): 117%
activity at 100 µM (NEK6(h)): 109%
activity at 100 µM (Ab1(h)): 136%
activity at 100 µM (PKCβI(h)): 88%
activity at 100 µM (GRK7(h)): 111%
activity at 100 µM (FGFR4(h)): 67%
activity at 100 µM (NEK11(h)): 102%
activity at 100 µM (Fes(h)): 44%
activity at 100 µM (SAPK4(h)): 98%
